Data published in PubChem BioAssay AID1362 (SRMLSC, 2008).
The list shows a part of the results, in another mix than the full data. The source made the active and inactive calls. Cut-off read from the data, not from the text of the source: active = inhibition above about 58%; inactive = the rest, inconclusive results apart; tested in S. cerevisiae.

experiment: growth inhibition of WT strain, primary screen, mitochondrial fusion inhibitor project, WT and mutant strains, chemical genetic (AID 1362); details: mitochondrial fusion phenotypic screen, at 10 µM, active compounds read high

Structure (SMILES) | inhibition
CN(C)CCOC(=O)C(O)(c1ccccc1)C1CCCCC1 (configuration not stated) | inactive: -4.86%
COc1ccc(NP(C)(=O)Oc2ccccc2OC)cc1 (configuration not stated) | inactive: -3.08%
COC(=O)c1cc2c(s1)N=C(c1ccccc1)N(C)P2(=O)N1CCOCC1 (configuration not stated) | inactive: 11%
Cc1ccc(OP(=O)(Nc2ccccn2)Oc2ccc(C)cc2)cc1 | inactive: 36.2%
CCC(=O)N1C2C3N(C(=O)CC)C1C1N(C(=O)CC)C(C(N1C(=O)CC)N3C(=O)CC)N2C(=O)CC | inactive: -20.8%
CCN(CC)CCCOC(=O)C(O)(c1ccccc1)C1CCCCC1 (configuration not stated) | inactive: -8.41%
CP(=O)(Nc1ccccc1)Oc1ccc(F)cc1 (configuration not stated) | inactive: -12.6%
O=c1c2cc([N+](=O)[O-])ccc2[nH]c2c([N+](=O)[O-])cc([N+](=O)[O-])cc12 | inactive: 96.2%
O=C(NC1CCS(=O)(=O)C1)NP(=S)(Oc1ccccc1)Oc1ccccc1 (configuration not stated) | inactive: -13.1%
CCNC(=S)/N=C(\N)N[N+](=O)[O-] | inactive: 5.31%
c1ccc(-c2nn[nH]n2)c(-c2nn[nH]n2)c1 | inactive: -6.5%
CCOC(=O)NC(Sc1ccccc1)C(Cl)(Cl)Cl (configuration not stated) | inactive: 27.1%
CCOC(=O)c1ccc(NP(C)(=O)Oc2ccc(F)cc2)cc1 (configuration not stated) | inactive: 3.21%
COc1ccc(OP(C)(=O)Nc2ccc(SC(F)(F)F)cc2)cc1 (configuration not stated) | inactive: 33.1%
O=C(OCCN1CCN(CCOCc2ccccc2)CC1)C(O)(c1ccccc1)c1ccccc1 | inactive: -6.54%
CC(=O)Nc1ccc(Oc2c([N+](=O)[O-])cc([N+](=O)[O-])cc2[N+](=O)[O-])cc1 | inactive: 7.31%
O=P1(Nc2nc3ccc(Cl)cc3s2)COc2ccccc2O1 (configuration not stated) | inactive: 8.77%
CCOc1ccc(C2=NCC(CBr)S2)cc1 (configuration not stated) | inactive: 12.5%
CP(=O)(Nc1ccccc1F)Oc1ccccc1 (configuration not stated) | inactive: -4.03%
CC(C)(C)C(=O)NC(Sc1ccccc1)C(Cl)(Cl)Cl (configuration not stated) | inactive: 7.63%
CC(C)c1ccc(OP(C)(=O)Nc2ccc(SC(F)(F)F)cc2)cc1 (configuration not stated) | inactive: 11.7%
Cc1ccc(C)c(NP(C)(=O)Oc2ccccc2)c1 (configuration not stated) | inactive: 5.43%
Cc1cc(C)cc(OP(C)(=O)Nc2ccccn2)c1 (configuration not stated) | inactive: -5.68%
CP(=O)(Nc1cccc(Br)c1)Oc1ccccc1 (configuration not stated) | inactive: -28%
Cc1ccc(NCCc2c([N+](=O)[O-])cc([N+](=O)[O-])cc2[N+](=O)[O-])cc1 | inactive: 41.9%
CCOP(=O)(Nc1cccc2ccccc12)OCC | inactive: 9.27%
COc1cc(C(=O)NCC2(N3CCOCC3)CCCCC2)cc(Cl)c1OC(C)C | inactive: 10.8%
